Sequences of proteins named here, by UniProt entry; tags and fusion partners are left off.
UniProt P23219, whole entry: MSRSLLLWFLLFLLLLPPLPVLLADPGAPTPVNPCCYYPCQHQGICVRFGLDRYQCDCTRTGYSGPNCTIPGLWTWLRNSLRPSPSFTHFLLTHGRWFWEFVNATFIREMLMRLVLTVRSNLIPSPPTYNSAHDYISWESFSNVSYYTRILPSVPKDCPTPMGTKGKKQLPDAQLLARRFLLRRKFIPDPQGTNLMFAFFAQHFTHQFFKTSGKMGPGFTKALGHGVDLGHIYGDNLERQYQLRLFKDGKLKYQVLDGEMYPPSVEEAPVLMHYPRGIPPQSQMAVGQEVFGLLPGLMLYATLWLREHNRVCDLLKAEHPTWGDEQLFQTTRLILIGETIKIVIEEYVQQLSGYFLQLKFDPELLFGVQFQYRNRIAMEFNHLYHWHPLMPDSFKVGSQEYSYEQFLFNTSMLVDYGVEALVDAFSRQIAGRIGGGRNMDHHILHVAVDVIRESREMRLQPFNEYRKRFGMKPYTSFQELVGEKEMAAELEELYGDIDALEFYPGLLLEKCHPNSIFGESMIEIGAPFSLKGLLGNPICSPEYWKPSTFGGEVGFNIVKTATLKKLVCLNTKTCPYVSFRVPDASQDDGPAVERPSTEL

In ChEMBL document CHEMBL1629461, “The novel benzopyran class of selective cyclooxygenase-2 inhibitors. Part 2: the second clinical candidate having a shorter and favorable human half-life” (Bioorg Med Chem Lett, 2010):

Biological target: Prostaglandin G/H synthase 1 (Homo sapiens, UniProt P23219)

Structure (SMILES): CCC(CC)COc1c(Cl)cc2c(c1Cl)OC(C(F)(F)F)C(C(=O)O)=C2 (stereo unspecified)
- IC50: < 140 nM
